Compounds with a hit are over-represented: about 2.8% of the library has one in this group of screens.
Wnt act = Wnt/beta-catenin pathway activators, primary screen, cell-based, plate reader, single point. activation, % at 9.35 µM. Wnt/beta-catenin reporter cell assay, activator. 300,000 compounds, 1.2% hits; in the data active means activation above about 30%, passing the limit was not always enough; inconclusive means no clear call, values can overlap the other calls
MITF act = activators of MITF-driven TRPM1 promoter reporter, primary screen, cell-based, SK-MEL-5, luciferase, single point | SK-MEL-5 TRPM1-promoter luciferase, 24 h; % of positive control, neutral wells = 0 | activation, % at 12.5 µM | 300,000 compounds, 0.75% hits;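 active means mean activation of at least 80% with every replicate also reaching 80%; inconclusive means mean reaches 80% but some replicate falls short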
UUG fidelity = modulators of start codon recognition fidelity in yeast; S. cerevisiae UUG-firefly luciferase reporter, luminescence/redox ratio; AID 602363; 350,000 tested, 0.13% active; activity score, % at 18.7 µM;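 active = replicate mean at a twofold rise or more, about +100% in these data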;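 also: firefly luciferase made from a UUG start codon reports start codon fidelity; reporter light over untreated wells divided by growth signal over untreated wells; some hits fall short of that in this replicate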
esBAF inh = Bmi1 luciferase reporter increase in mESCs, primary screen, esBAF inhibitor project, mouse ES cells, Bmi1 luciferase knock-in, single point. 24 h; 100% = twice the neutral-well signal. reporter increase, % at 12.5 µM. 350,000 compounds, 2% hits. AID 602393, 2012; in the data active means activation above about 40%; inconclusive means no clear call, values can overlap the other calls;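 further: a rise in the Bmi1 reporter signal indicates esBAF inhibition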
PglD DTNB = C. jejuni PglD acetyltransferase inhibitors, primary screen, biochemical, DTNB colorimetric, single point. UDP-N-acetylbacillosamine N-acetyltransferase PglD (Campylobacter jejuni). purified PglD enzyme, DTNB colorimetric CoA detection. inhibition, % at 12.5 µM. 360,000 compounds, 0.098% hits; in the data active means inhibition above about 16%, passing the limit was not always enough; inconclusive means no clear call, values can overlap the other calls
miR-122 sensor = miR-122 Renilla sensor signal increase in Huh7, primary screen, miR-122 inhibitor project, cell-based, single point, plate reader. Huh7 miR-122 Renilla luciferase sensor, 48 h; neutral wells = 0, positive control = 100. 340,000 compounds, 0.3% hits. activation (reporter increase), % at 12.5 µM. AID 602342, 2012;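 active means mean replicate activation score at least 90 and every replicate individually at or above 90; inconclusive means only one of the two criteria met; inactive means neither criterion met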;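 further: higher luciferase means less miR-122 activity so hits act as miR-122 inhibitors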
Hits are given with their value; n = inactive; u = inconclusive; x = no result.

SMILES | Wnt act | MITF act | UUG fidelity | esBAF inh | PglD DTNB | miR-122 sensor
CC(C)CC#Cc1cnc2c(c1)C(=O)N([C@@H](C)CO)C[C@@H](C)[C@@H](CN(C)C(=O)c1cnccn1)O2 | x | x | n | n | n | n
C[C@@H]1CN([C@H](C)CO)C(=O)Cc2cc(NS(=O)(=O)c3ccc(Cl)cc3)ccc2O[C@@H]1CN(C)S(=O)(=O)c1cccs1 | x | x | n | n | n | n
CC(=O)Nc1ccc2c(c1)C(=O)N(C)[C@H]1CC[C@@H](CC(=O)NCc3ccc4c(c3)OCO4)O[C@@H]1CO2 | x | x | n | n | n | n
CC(C)(CO)NC(=O)c1ccc2nc(Cc3cccc(Cl)c3)oc2c1 | n | x | n | 43 | n | n
CCCOC1CCCN(C(=O)c2ccc3oc(C(C)C)nc3c2)C1 (stereo not drawn) | n | n | n | 44 | n | n
CCOC(=O)C1CCCN(C(=O)c2ccc3oc(Cc4ccccc4)nc3c2)C1 (stereo not drawn) | n | n | n | 70 | n | n
C[C@@H]1CN([C@H](C)CO)C(=O)c2cccc(NC(=O)C3CCCCC3)c2O[C@@H]1CN(C)S(=O)(=O)c1ccccc1 | x | x | n | n | n | n
O=C(Cc1ccccc1)N1CCC(c2ccccc2)C1 (stereo not drawn) | n | n | x | 46 | x | x
COc1ccc(CC(=O)N2CCC(c3ccccc3)C2)cc1 (stereo not drawn) | n | n | x | x | x | x
O=C(O)c1ccccc1-c1ccccc1C(=O)Nc1ccc(-c2nc3cc(Cl)ccc3o2)cc1 | 35 | n | x | x | x | x
CCCNC(=O)C[C@H]1CC[C@H]2[C@H](COc3ccc(NC(=O)Nc4ccccc4)cc3C(=O)N2C)O1 | x | x | n | n | n | n
COc1ccc(S(=O)(=O)Nc2cc3c4c(c2)CCC(=O)N4CCC3)cc1 | n | n | n | n | n | n
COc1ccc(OC)c(S(=O)(=O)Nc2ccc3oc4c(c3c2)C(=O)CCC4)c1 | x | x | n | n | n | 165
Cc1ccc(C)c(S(=O)(=O)Nc2cc3c4c(c2)CCC(=O)N4CCC3)c1 | n | n | x | n | x | 218
COc1ccc(OC)c(S(=O)(=O)Nc2cc3c4c(c2)CCC(=O)N4CCC3)c1 | n | n | n | n | n | 138
Cc1ccc2nc(/C=C/c3cccc(F)c3)ccc2c1 | 71 | n | x | x | x | x
CCNC[C@H]1[C@H](c2ccc(C3=CCCCC3)cc2)[C@@H](CO)N1C(=O)NC(C)C | x | x | n | n | n | n
COc1cc(/C=C/C(=O)NC(=O)c2ccccc2O)ccc1OC(C)=O | n | n | n | 54 | n | n
COc1ccc(/C(N)=N/OC(=O)/C=C/c2ccccc2)cc1 | u | n | n | n | n | n
COc1ccc(/C=C/C(=O)NC(=S)Nc2ccccc2)cc1OC | n | n | n | n | n | n
COc1ccc(/C=N/NC(=O)c2ccncc2)cc1OC | n | n | n | n | n | x
C/C=C/c1ccc(OC(C)=O)c(OC)c1 | n | n | n | n | n | n
COc1ccc(/C=C/C(=O)Oc2ccc(/C=N/NC(=O)c3ccccc3)cc2)cc1OC | x | n | n | 47 | n | n
COc1ccc(/C=C/C(=O)O/N=C(\N)c2ccccc2)cc1OC | 46 | n | n | x | n | n
COc1ccc(/C=C/C(=O)Nc2ccccc2)cc1OC | n | 90 | x | x | x | x
SMILES | Wnt act | MITF act | UUG fidelity | esBAF inh | PglD DTNB | miR-122 sensor
COc1ccc(NC(=O)/C=C/c2ccc(F)cc2)cn1 | n | n | x | x | x | x
Cc1ccc(/C(N)=N/OC(=O)CCc2ccccc2)cc1 | n | n | n | 60 | n | n
COc1cc(/C=N/NC(=O)c2ccncc2)ccc1OCC(=O)Nc1ccccc1 | n | 99 | n | n | n | x
Cn1c(NC(=O)/C=C/c2ccccc2)cc(=O)n(C)c1=O | 61 | n | n | x | n | n
COc1ccc(NC(=O)/C=C/c2ccccc2)cn1 | x | 122 | n | 42 | n | n
N/C(=N\OC(=O)CCc1ccccc1)c1ccc(Br)cc1 | n | n | n | n | n | n
C[C@@H]1CCCCO[C@@H](CN(C)C(=O)NC2CCCCC2)[C@@H](C)CN([C@H](C)CO)C(=O)c2cc(NS(=O)(=O)c3cccs3)ccc2O1 | x | x | n | n | n | n
CO[C@H]1CN(C)C(=O)c2ccc(NS(C)(=O)=O)cc2OC[C@H](C)N(C(=O)c2ccc3c(c2)OCO3)C[C@@H]1C | x | x | x | n | n | n
CCOc1ccc(/C=C/C(=O)c2ccccc2)cc1OC | 76 | n | x | x | x | x
Cc1ccccc1/C(N)=N/OC(=O)/C=C/c1ccccc1 | 77 | n | n | n | n | n
CSc1cccc(NC(=O)/C=C/c2ccccc2)c1 | n | x | n | 62 | n | n
N/C(=N\OC(=O)/C=C/c1ccccc1)c1cccnc1 | x | n | x | x | x | x
CSc1cccc(NC(=O)/C=C/c2ccc(Cl)cc2)c1 | x | x | n | n | x | n
Cc1ccc(/C(N)=N/OC(=O)/C=C/c2ccccc2)cc1 | n | n | n | 50 | n | n
CCOc1ccc(C(=O)/C=C/c2ccc(OC)c(OC)c2)cc1 | n | n | x | x | x | x
C[C@H](CO)N1C[C@H](C)[C@@H](CN(C)CC2CC2)Oc2ccc(NS(=O)(=O)c3cccs3)cc2CC1=O | x | x | n | n | n | n
COc1ccc(C(=O)Cn2c(=N)n(C)c3ccccc32)cc1 | n | x | n | 87 | n | n
COc1ccc(C(=O)CN2Cc3ccccc3C2=N)cc1 | 42 | x | x | x | x | x
Cn1c(=N)n(CC(=O)C(C)(C)C)c2ccccc21 | n | n | n | 51 | n | n
COc1ccc(C(=O)CN2C(=O)COc3ccccc32)cc1 | n | n | x | x | x | n
Cn1c(=N)n(CC(=O)c2ccccc2)c2ccccc21 | n | x | n | n | n | n
COc1cccc2sc(Nc3nc(-c4cc5ccccc5oc4=O)cs3)nc12 | n | n | n | x | n | n
Nc1ccc(Nc2nc(-c3cc4ccccc4oc3=O)cs2)cc1 | n | n | n | 81 | n | n
CC(=O)Nc1ccc(NC(=O)c2cccc(-c3cc4ccccc4oc3=O)c2)cc1 | n | n | n | 66 | n | n
CC(=O)Nc1ccc(Nc2nc(-c3cc4ccccc4oc3=O)cs2)cc1 | n | x | n | 90 | n | n
SMILES | Wnt act | MITF act | UUG fidelity | esBAF inh | PglD DTNB | miR-122 sensor
O=C(O)c1ccc(Nc2nc(-c3cc4ccccc4oc3=O)cs2)cc1O | n | n | x | x | x | n
CCC(=O)N(C)C[C@@H]1Oc2cc(-c3ccccc3OC)ccc2S(=O)(=O)N([C@@H](C)CO)C[C@H]1C | x | x | n | n | n | n
CN1C[C@H]2[C@@H](c3ccccc31)[C@@H](CO)N2C(=O)C1CCCCC1 | x | x | n | n | n | n
Cc1ccc(O)c(C=Nc2cc(C)ccc2O)c1 | n | n | n | n | n | n
O=C1C(C=Nc2ccccc2O)=C(O)c2ccccc21 | 36 | n | n | n | n | n
O=C1C(C=NCCCN2CCOCC2)=C(O)c2ccccc21 | x | n | n | n | n | n

Screens (PubChem BioAssay)
